{
  "source": "paper PMC4145329",
  "about": "“Paper Synthesis, Cytotoxicity and Apoptosis Induction in Human Tumor Cells by Galaxamide and Its Analogues” (Marine Drugs, 2014)",
  "assay_type_in_all_cases": "cell-based, human",
  "conditions_in_all_cases": "72 h, mean ± standard error, three independent experiments",
  "key": {"[1]": {"system": "MCF-7 cells", "test": "MTT anti-proliferative assay, MCF-7", "experimental": "(§1) All of the cells were incubated at 37 °C in a humidified atmosphere composed of 95% air and 5% CO2. The cell viability was determined by measuring the ability of cells to transform MTT (Genview, Houston, TX, USA) to a purple formazan dye. The cells were seeded in 96-well tissue culture plates at 2.5 × 10^3 cells/well for 24 h. The cells were then incubated with galaxamide and its analogues at different concentrations for 72 h. After incubation, 20 μL/well of MTT solution (5 mg/mL phosphate buffered saline) were added and incubated for 5 h. The medium was aspirated and replaced with 100 μL/well of DMSO to dissolve the formazan salt. The color intensity of the formazan solution, which reflects the cell growth condition, was measured at 570 nm using a microplate spectrophotometer (SpectroAma™ 250, Winooski, VT, USA)."}, "[2]": {"system": "HepG2 cells", "test": "MTT anti-proliferative assay, HepG2", "experimental": "as §1"}, "[3]": {"system": "SW480 cells", "test": "MTT anti-proliferative assay, SW480", "experimental": "as §1"}, "[4]": {"system": "U87 cells", "test": "MTT anti-proliferative assay, U87", "experimental": "as §1"}},
  "data": [
    {"substance": "Galaxamide", "values": [
      {"measurement": "Cytotoxicity IC50, MCF-7", "setting": "[1]", "value": "14.09 ± 1.35", "unit": "µg/mL"},
      {"measurement": "Cytotoxicity IC50, HepG2", "setting": "[2]", "value": "4.63 ± 0.14", "unit": "µg/mL"},
      {"measurement": "Cytotoxicity IC50, SW480", "setting": "[3]", "value": 43.82, "unit": "µg/mL"},
      {"measurement": "Cytotoxicity IC50, U87", "setting": "[4]", "value": "10.61 ± 0.24", "unit": "µg/mL"}
    ]}
  ]
}
